Data from patent US9448170B2 (priority 2003, dated 2016).
Like-named read-outs stand apart in the source and are kept apart here.

Assays:
Spirulina platensis [1] = test system: Spirulina platensis
Spirulina platensis [2] = conditions: FIG. 27, 1.5 μmol/m^2/s
[3] = light condition during standing green light (530 nm)
[4] = light condition during standing red light (665 nm)
[5] = light condition during standing white light

TPN
Curve value variation as the concentration becomes higher (Spirulina platensis [1]; FIGS. 11, 13, 15, 17, 19, 21, difference of decay curves of test and standard solution): varies in the positive direction at around 1 second after excitation and then varies in the negative direction at around 3 to 5 seconds after excitation
variation of the VCP1 value with respect to concentration (Spirulina platensis [1]; with an increase in concentration of the substance, FIGS. 10, 12, 14, 16, 18, 20 graph (a)): increase
variation of the VCP2 value with respect to concentration (Spirulina platensis [1]; with an increase in concentration of the substance, FIGS. 10, 12, 14, 16, 18, 20 graph (b)): decreases
variation of the VTP2 value with respect to concentration (Spirulina platensis [1]; with an increase in concentration of the substance, FIGS. 10, 12, 14, 16, 18, 20 graph (c)): increase
VCP1 value (Spirulina platensis [2]; [3]): 112
VCP2 value (Spirulina platensis [2]; [3]): 78
VTP2 value (Spirulina platensis [2]; [3]): 89
VCP1 value (Spirulina platensis [2]; [4]): 171
VCP2 value (Spirulina platensis [2]; [4]): 44
VTP2 value (Spirulina platensis [2]; [4]): 118
VCP1 value (Spirulina platensis [2]; [5]): 144
VCP2 value (Spirulina platensis [2]; [5]): 47
VTP2 value (Spirulina platensis [2]; [5]): 122
